Literature values as cited in publication PMC3182250.

Biological target: hEag-1 CaM-binding site (Homo sapiens) (UniProt O95259)

- Kd: > 100 nM
Substance: Calmodulin (from UniProt P0DP23)
